Laboratory results reported in the supplement of paper PMC8183993.
What follows is the remainder of the data, with few or none of the lowest values.

Test system: U2OS
Experiment: nuclei count (viability) relative to DMSO (% of DMSO); higher = more viable cells
Conditions: 10 µM; 24 h
Procedure: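 Primary image-based screen in U2OS cells: compounds at 10 uM for 24 h, then a 1 h o-propargyl-puromycin (OPP) pulse, click labelling, and high-throughput microscopy. Mean cytoplasmic OPP intensity and nuclei count were normalised to DMSO wells within each plate (DMSO = 100) and averaged over triplicate plates.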

| SMILES | nuclei count |
| --- | --- |
| COc1cc(Br)c(C[N+]2(CCOCCC3CCC4CC3C4(C)C)CCOCC2)cc1OC (stereo unspecified) [Pinaverium bromide] | 107 |
